Assay results published in PubChem BioAssay (NCATS).
This is a selection; strong and weak results do not stand in their true shares. Results filed as inconclusive are left out. For some of these results: Potency and affinity values are given separately. The source made the active and inactive calls. Unless noted, calls follow the shape of the dose curve; as a rule, active = well fitted curve in the direction sought with a large enough effect; inconclusive = small, poorly fitted or top-dose-only effect, or another doubt; inactive = no such curve, though single readings can be large; an effect the other way counts as inactive or inconclusive.

Amino acid sequences for entries named in this document (tags omitted). A change or cut given only in a name is not applied to a line headed by its entry.
UniProt P19793: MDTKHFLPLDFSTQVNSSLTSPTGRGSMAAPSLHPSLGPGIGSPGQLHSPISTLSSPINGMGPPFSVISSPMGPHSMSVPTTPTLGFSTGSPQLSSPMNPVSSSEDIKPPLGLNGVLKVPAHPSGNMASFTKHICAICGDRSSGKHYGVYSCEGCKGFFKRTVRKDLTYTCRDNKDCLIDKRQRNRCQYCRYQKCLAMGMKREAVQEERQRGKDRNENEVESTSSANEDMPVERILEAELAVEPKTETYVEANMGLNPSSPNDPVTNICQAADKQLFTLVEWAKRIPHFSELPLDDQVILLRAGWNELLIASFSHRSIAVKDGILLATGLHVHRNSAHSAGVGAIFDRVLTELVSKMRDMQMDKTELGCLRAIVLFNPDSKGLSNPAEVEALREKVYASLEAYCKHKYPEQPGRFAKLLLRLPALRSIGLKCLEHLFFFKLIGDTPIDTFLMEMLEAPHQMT
UniProt P10828: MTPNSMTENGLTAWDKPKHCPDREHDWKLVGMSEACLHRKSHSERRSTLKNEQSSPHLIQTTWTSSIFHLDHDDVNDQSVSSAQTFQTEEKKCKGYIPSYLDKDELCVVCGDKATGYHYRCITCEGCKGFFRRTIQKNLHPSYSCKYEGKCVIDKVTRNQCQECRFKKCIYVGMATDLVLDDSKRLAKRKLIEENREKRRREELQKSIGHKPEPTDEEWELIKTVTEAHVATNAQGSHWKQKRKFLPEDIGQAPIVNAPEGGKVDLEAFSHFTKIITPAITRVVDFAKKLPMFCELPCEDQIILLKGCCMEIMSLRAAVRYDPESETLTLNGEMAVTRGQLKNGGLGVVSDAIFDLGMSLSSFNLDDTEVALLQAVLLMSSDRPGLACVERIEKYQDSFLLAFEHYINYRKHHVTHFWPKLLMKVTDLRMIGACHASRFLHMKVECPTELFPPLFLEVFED
UniProt Q12809: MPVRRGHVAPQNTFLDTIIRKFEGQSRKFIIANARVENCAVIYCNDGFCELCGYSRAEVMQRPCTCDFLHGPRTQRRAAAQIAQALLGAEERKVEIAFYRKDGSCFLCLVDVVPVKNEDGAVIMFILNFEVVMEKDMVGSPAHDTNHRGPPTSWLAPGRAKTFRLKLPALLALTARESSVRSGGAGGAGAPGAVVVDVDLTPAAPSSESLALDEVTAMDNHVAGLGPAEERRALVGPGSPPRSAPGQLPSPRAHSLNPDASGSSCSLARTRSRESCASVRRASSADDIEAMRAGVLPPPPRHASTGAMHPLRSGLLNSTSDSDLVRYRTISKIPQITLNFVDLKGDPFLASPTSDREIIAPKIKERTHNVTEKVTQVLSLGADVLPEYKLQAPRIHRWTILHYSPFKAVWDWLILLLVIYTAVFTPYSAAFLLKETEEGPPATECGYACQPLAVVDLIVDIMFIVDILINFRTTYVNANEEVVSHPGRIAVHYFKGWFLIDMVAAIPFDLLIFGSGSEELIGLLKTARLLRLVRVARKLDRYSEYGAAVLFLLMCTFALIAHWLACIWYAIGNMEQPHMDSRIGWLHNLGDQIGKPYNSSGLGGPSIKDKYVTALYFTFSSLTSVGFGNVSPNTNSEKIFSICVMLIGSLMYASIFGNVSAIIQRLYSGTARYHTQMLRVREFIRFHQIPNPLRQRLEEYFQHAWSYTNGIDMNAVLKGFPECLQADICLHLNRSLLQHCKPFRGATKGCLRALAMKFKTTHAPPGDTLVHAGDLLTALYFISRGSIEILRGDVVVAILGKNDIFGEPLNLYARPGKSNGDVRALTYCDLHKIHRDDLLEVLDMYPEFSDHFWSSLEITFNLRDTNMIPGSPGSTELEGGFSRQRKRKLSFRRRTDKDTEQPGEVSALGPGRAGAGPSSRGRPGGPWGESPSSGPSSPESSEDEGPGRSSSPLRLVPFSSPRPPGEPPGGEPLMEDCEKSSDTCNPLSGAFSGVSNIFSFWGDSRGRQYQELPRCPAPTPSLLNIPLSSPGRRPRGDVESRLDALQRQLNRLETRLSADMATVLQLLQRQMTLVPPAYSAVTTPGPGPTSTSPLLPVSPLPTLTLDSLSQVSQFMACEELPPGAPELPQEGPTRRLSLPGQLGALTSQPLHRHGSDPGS
UniProt P01375, whole entry, looked up: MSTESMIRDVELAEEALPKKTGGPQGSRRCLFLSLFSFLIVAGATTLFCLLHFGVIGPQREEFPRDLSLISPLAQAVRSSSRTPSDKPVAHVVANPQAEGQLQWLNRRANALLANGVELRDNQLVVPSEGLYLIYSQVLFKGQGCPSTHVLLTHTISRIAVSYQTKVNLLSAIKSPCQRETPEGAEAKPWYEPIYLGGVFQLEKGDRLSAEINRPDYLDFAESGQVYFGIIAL
UniProt Q07869: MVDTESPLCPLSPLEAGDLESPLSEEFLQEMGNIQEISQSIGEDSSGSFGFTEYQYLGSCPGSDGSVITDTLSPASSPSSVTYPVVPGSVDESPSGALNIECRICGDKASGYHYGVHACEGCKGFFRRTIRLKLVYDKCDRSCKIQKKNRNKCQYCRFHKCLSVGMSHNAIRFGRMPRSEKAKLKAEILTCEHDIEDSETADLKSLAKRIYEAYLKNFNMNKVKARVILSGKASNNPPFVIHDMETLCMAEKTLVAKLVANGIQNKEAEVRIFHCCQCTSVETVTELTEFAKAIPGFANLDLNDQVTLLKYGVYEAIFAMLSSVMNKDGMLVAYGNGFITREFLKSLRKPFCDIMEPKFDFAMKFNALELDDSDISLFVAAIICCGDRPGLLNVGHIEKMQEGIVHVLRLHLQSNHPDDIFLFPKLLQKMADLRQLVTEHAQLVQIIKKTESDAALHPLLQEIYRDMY
UniProt P51449: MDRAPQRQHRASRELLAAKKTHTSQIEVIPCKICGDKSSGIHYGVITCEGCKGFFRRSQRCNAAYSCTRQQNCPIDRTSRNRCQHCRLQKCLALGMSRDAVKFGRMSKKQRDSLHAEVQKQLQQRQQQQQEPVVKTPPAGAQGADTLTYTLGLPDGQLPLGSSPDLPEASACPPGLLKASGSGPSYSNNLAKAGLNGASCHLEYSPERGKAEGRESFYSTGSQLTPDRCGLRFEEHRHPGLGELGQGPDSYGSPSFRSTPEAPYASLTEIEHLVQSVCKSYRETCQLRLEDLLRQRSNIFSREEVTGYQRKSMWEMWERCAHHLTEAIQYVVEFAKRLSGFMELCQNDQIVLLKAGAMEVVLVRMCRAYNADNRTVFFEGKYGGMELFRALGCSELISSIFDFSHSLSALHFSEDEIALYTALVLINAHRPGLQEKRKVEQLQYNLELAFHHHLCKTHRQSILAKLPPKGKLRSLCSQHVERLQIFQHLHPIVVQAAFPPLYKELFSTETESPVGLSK
UniProt Q9R1A7: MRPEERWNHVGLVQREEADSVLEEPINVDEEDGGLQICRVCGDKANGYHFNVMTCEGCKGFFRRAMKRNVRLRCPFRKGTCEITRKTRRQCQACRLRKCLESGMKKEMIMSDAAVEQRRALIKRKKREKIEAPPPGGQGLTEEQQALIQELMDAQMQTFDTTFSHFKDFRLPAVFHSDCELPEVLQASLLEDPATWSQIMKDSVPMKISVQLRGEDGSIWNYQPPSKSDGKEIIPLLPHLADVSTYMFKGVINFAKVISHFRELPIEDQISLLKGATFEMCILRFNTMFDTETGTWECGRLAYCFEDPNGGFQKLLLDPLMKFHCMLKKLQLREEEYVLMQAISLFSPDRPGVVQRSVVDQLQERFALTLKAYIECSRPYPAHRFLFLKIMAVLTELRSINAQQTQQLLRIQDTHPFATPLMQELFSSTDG

Assays:
[1] = Cell Viability - LYMP2-005 (AID 967); also: potency is read from the fitted curve at half-maximal effect
In short: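 LYMP2-005 human lymphoblastoid cells (2500/well) were treated with compounds for 24 h at 37 C. Intracellular ATP was then measured by CellTiter-Glo luminescence after 30 min at room temperature. AC50 values came from Hill-equation fits of qHTS concentration-response data.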

[2] = Cell Viability - LYMP1-002 - Assay at 24 hr (AID 993); conditions: LYMP1-002 lymphoblastoid cells viability; at 92.2 µM (top of the series); also: % is scaled to controls: 0 for no effect and ±100 for the full control effect
In short: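 qHTS, LYMP1-002 lymphoblastoid, 24 h cpd, 37 C, CellTiter-Glo ATP luminescence; AC50 via Hill eq.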

[3] = qHTS Assay for Identification of Small Molecule Inducers of Hypoxia Response (AID 2120; active = well fitted curve in the direction sought with a large enough effect in the signal ratio, with a control signal flat, not every such curve was filed as active; the % refers to the signal ratio; also: 0% is about no effect); conditions: hypoxia response reporter cells, beta-lactamase ratio readout; at 104 µM (top of the series)
In short: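 Induction of beta-lactamase reporter activity was measured in CellSensor HRE-bla ME-180 cells after 17 h compound treatment at 37 degrees C, using CCF4 substrate and the 460nm/530nm emission ratio to derive AC50 values.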

[4] = target: Glucocorticoid receptor (Homo sapiens) (UniProt P04150); experiment: qHTS assay for small molecule agonists of glucocorticoid receptor signaling (AID 588532; active = well fitted curve in the direction sought with a large enough effect in the signal ratio, with a control signal flat; the % refers to the signal ratio;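 also: 100% = dexamethasone at 0.1 µM and 0% = DMSO only wells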); conditions: HeLa MMTV-bla, beta-lactamase ratio, agonist, 18 h; active compounds read high
[5] = target: Vitamin D3 receptor (Homo sapiens) (UniProt P11473); experiment: qHTS assay for small molecule antagonists of vitamin D receptor signaling (AID 588541; calls by dose curve;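 also: receptor activated by calcitriol during compound treatment; % is scaled to controls: 0 for no effect and ±100 for the full control effect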); conditions: HEK293T VDR-UAS-bla, beta-lactamase ratio, antagonist mode; at 76.7 µM (top of the series)
In short: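 Antagonist-mode beta-lactamase reporter assay: HEK293T VDR-UAS-bla cells were exposed to titrated compound alongside 1-alpha,25-dihydroxyvitamin D3 at 3 nM final for 16 h. Values were normalized to the 50 nM agonist control and DMSO basal, with IC50 and efficacy from Hill equation fits.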

[6] = target: Vitamin D3 receptor (Homo sapiens) (UniProt P11473); experiment: qHTS assay for small molecule agonists of vitamin D receptor signaling (AID 588543; calls by dose curve;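 also: 0% = DMSO basal and 100% = reference agonist control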); conditions: HEK293T VDR-UAS-bla, beta-lactamase ratio, 16 h; at 76.8 µM (top of the series)
In short: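 Agonist-mode beta-lactamase reporter: HEK293T VDR-UAS-bla cells in charcoal-stripped 2% FBS, compound series 16 h 37 C, CCF4 2 h RT. EC50 from Hill fit, scaled against DMSO and 50 nM calcitriol control.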

[7] = target: Retinoic acid receptor RXR-alpha (Homo sapiens) (UniProt P19793); experiment: qHTS assay for small molecule agonists of retinoid X receptor alpha signaling (AID 588544; calls by dose curve;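 also: 0% = DMSO basal wells and 100% = reference agonist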); conditions: HEK293T RXRa-UAS-bla, beta-lactamase reporter, 18 h; at 76.7 µM (top of the series)
[8] = target: Thyroid hormone receptor beta (Homo sapiens) (UniProt P10828); experiment: qHTS assay for small molecule agonists of thyroid hormone receptor beta signaling (AID 588545; calls by dose curve;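 also: 0% = DMSO only and 100% = 10 nM T3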); conditions: TR-UAS-bla GripTite HEK 293, beta-lactamase ratio, agonist mode, 18 h, percent of T3 response, DMSO as zero; at 76.7 µM (top of the series)
In short: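 TR-UAS-bla-GripTite HEK 293 cells in medium with 2% charcoal/dextran FBS, 0.1 mM NEAA and 1 mM sodium pyruvate were treated with titrated compounds for 18 hrs at 37 C. Beta-lactamase reporter was read with CCF4 dye (ex 405, em 460/530 nm); EC50 from Hill fits.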

[9] = target: Retinoic acid receptor RXR-alpha (Homo sapiens) (UniProt P19793); experiment: qHTS assay for small molecule antagonists of retinoid X receptor alpha signaling (AID 588546; active = well fitted inhibition curve with a large enough effect in the signal ratio, with a control signal flat, not every such curve was filed as active; the % refers to the signal ratio;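 also: cells stimulated with 9-cis-retinoic acid as agonist; % is scaled to controls: 0 for no effect and ±100 for the full control effect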); conditions: HEK293T RXRa-UAS-bla, beta-lactamase ratio, antagonist mode
In short: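 Beta-lactamase reporter inhibition, read as CCF4 fluorescence ratio (ex 405, em 460/530 nm) after 2 h at RT. HEK293T UAS-bla cells, 2500/well, were stimulated with 9-cis-RA at 500 or 100 nM final alongside test compound for 18 h at 37 C.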

[10] = target: Voltage-gated inwardly rectifying potassium channel KCNH2 (Homo sapiens) (UniProt Q12809); experiment: qHTS Assay for Small Molecule Inhibitors of the Human hERG Channel Activity (AID 588834); conditions: U2OS BacMam hERG, FluxOR thallium flux fluorescence; at 46.1 µM (top of the series) unless noted;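 also: U2OS cells transduced with hERG by BacMam; top concentration of the series differs between compounds; % is scaled to controls: 0 for no effect and ±100 for the full control effect; lower thallium flux fluorescence means stronger hERG block; nearly all actives have a fitted effect of over 50% in size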
[11] = qHTS assay for small molecule activators of the p53 signaling pathway (AID 651743; active = well fitted activation curve with a large enough effect in the signal ratio, not every such curve was filed as active; the % refers to the signal ratio; also: potency is read from the fitted curve at half-maximal effect); conditions: HCT-116 p53RE-bla, beta-lactamase FRET ratio, 16 h; activation: active compounds read high
[12] = target: Tumor necrosis factor (Homo sapiens) (UniProt P01375); experiment: qHTS assay to identify small molecules that stimulate Tumor Necrosis Factor-alpha (TNF-alpha) secretion (AID 651757; active = well fitted curve in the direction sought with a large enough effect in the signal ratio; the % refers to the signal ratio; also: 0% is about no effect); conditions: Human cells, HTRF 665/615 ratio; at 92.2 µM (top of the series)
In short: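 Secreted TNF-alpha from compound-treated THP-1 cells (17 hrs, 37 C) was quantified with a homogeneous time-resolved fluorescence antibody assay.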

[13] = qHTS assay for environmental chemicals that activate the Aryl hydrocarbon Receptor (AhR) signaling pathway (AID 651777); conditions: 1A2-DRE human hepatoma cells, luciferase, 24 h; active compounds read high; also: % of control where 0% means no effect; nearly all actives have a fitted effect of over 15% in size
In short: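 Reporter gene assay: hepatoma cells with DRE/CYP1A2-luciferase, 24 hr compound incubation at 37 C, 5% CO2, luminescence after One-Glo (30 min, RT).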

[14] = target: Peroxisome proliferator-activated receptor alpha (Homo sapiens) (UniProt Q07869); experiment: qHTS assay for small molecule agonists of the peroxisome proliferator-activated receptor alpha (PPARalpha) signaling pathway (AID 651778); conditions: PathHunter PPARalpha complementation, chemiluminescence, 6 h; active compounds read high; also: % of control where 0% means no effect
[15] = target: Nuclear receptor ROR-gamma (Homo sapiens) (UniProt P51449); experiment: qHTS assay for small molecule antagonists of the retinoid-related orphan receptor gamma (ROR-gamma) signaling pathway (AID 651802); also: potency is read from the fitted curve at half-maximal effect; nearly all actives have a fitted effect of over 60% in size
[16] = qHTS assay for small molecule agonists of the antioxidant response element (ARE) signaling pathway measured by Nrf2-dependant transcriptional activity (AID 720636; active = well fitted curve in the direction sought with a large enough effect in the repeat runs; an effect the other way counts as inactive or inconclusive;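 also: HepG2 cells with an ARE-driven luciferase reporter; % of control where 0% means no effect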); conditions: ARE-luc HepG2, Nrf2 luciferase reporter, 16 h; at 92.4 µM (top of the series)
[17] = qHTS assay for small molecule agonists of the antioxidant response element (ARE) signaling pathway measured by Nrf2-dependant transcriptional activity - cell viability counter screen (AID 720653; active = well fitted curve in the direction sought with a large enough effect in the repeat runs; an effect the other way counts as inactive or inconclusive; also: % is scaled to controls: 0 for no effect and ±100 for the full control effect); conditions: ARE-bla HepG2 viability, CellTiter-Glo ATP luminescence, 16 h; active compounds read low
In short: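 Cytotoxicity counter screen: intracellular ATP quantified by CellTiter-Glo luminescence in the same ARE-bla HepG2 plates, after 16 h compound exposure and a 2 h beta-lactamase substrate step.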

[18] = target: Nuclear receptor subfamily 1 group I member 2 (Rattus norvegicus) (UniProt Q9R1A7); experiment: qHTS assay for small molecule activators of the rat pregnane X receptor (rPXR) signaling pathway (AID 651751; call rule not given here; also: 0% is about no effect); conditions: rPXR reporter cells, luciferase (One-Glo), 24 h
[19] = qHTS assay for small molecule activators of the human pregnane X receptor (PXR) signaling pathway (AID 720659; call rule not given here; also: 0% is about no effect); conditions: DPX-2 HepG2 CYP3A4-luciferase, 24 h; at 92.3 µM (top of the series)

CN(N=O)C(=N)N[N+](=O)[O-]
inactive: activity change, negative = cytotoxicity [2] -28.5% | activation [3] 4.53% | activation [4] -19.5% | activity change, negative = inhibition [5] -3.95% | activation [6] 4.69% | activation [7] -13.3% | activation [8] 6.33% | max response [9] 15.4% | activity change, negative = inhibition [10] 13.6% [at 92.2 µM] | activation (TNF-alpha secretion) [12] 0.0265% | activation [13] 0.292% | max response [14] -3.85% | activation [16] -1.02% | max response [17] -23.9% | max response [18] 0.388% | activation [19] -11.7%
active: Potency [1] 39.8 µM | Potency [11] 14.1 µM | Potency [15] 37.6 µM
